## Antibody variant affinities, Ab-14 light chain, assay B

Values reported by Li et al. 2023, doi:10.1038/s41467-023-39022-2 (FLAb copy).

Antigen: PDVDLGDISGINAS, a 14-residue peptide of the SARS-CoV-2 spike HR2 region.

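The parent was found by panning a naive human phage display library on the peptide. These sequences belong to a second round, designed from the earlier measurements on random variants of the parent. Several design methods are mixed in this list. The scFvs were displayed on barcoded MATa yeast, the peptide on MATalpha yeast. The frequency of each diploid, read from paired DNA barcodes, reflects how well the two displayed proteins bind. Each replicate has its own calibration line, from reference interactions of the BCL2 family. Each pool was mated in six replicate cultures.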

Parent: Ab-14, a human scFv built as VH, three GGGGS repeats, VL. Only the CDRs of the light chain vary.
VH: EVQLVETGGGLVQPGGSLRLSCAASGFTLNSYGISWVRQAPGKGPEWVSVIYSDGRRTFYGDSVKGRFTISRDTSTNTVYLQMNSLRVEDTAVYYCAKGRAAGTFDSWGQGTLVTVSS
VL: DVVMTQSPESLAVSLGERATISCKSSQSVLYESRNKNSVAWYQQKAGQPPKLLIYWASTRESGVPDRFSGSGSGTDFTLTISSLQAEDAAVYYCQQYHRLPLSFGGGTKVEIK

Positions count from residue 1 of the parent VL; S25L puts L in place of S. This list holds designs with at most six substitutions. The read-out is the apparent dissociation constant on a log10 scale (nM): the lower, the stronger. The mean shown is taken over the replicates in which the pair was detected. "nd" marks a missing value. The strain was present, yet no cells mated with the target were sequenced in that replicate, which points to weak or no binding. The list is sorted by this average, lowest first, undetected variants last. The range of this assay differs from that of the first round, and the authors advise against merging the two. As a blank, each scFv also met three strains without target: over all light chain designs, 4% of these pairings were detected, typically at 2.64 and seldom below 1.59. The authors averaged sequences with at least three values out of six and counted those with two or fewer as poor binders.

For S25L/S26G/S28G/W56G, the assay gave -0.24, -0.47, -0.46, -0.46, -0.36, -0.30 (mean -0.38). With S25L/S26Q/V29Q/W56G the result was -0.09, -0.35, -0.40, -0.59, -0.16, -0.22 (mean -0.30). The variant S25L/W56D/Q96D showed -0.19, -0.28, -0.36, -0.28, -0.37, -0.06 (mean -0.26). The variant S25L/S26Q/V29W/W56Q showed -0.06, -0.12, -0.05, -0.17, -0.27, 0.11 (mean -0.09). The variant S25L/V29D/L30P/W56E showed -0.09, -0.04, -0.14, -0.06, -0.29, 0.08 (mean -0.09). For S25L/V29R/W56N, the assay gave 0.18, -0.17, -0.13, -0.08, -0.17, 0.08 (mean -0.05). The variant S25I/S26M/V29E/W56N/E61M gave -0.05, -0.09, 0.06, -0.20, 0.04, -0.01 (mean -0.04). With K24H/S25L/N35Q/W56N the result was -0.19, 0.07, -0.11, 0.41, -0.23, -0.17 (mean -0.03). For S25V/S26Q/V29D/W56D, the assay gave -0.12, 0.13, 0.18, -0.02, -0.12, -0.20 (mean -0.02).

The variant S25L/S28M/W56G showed 0.04, 0.13, -0.14, -0.09, 0.09, -0.03 (mean 0.00). The variant S25L/L30E/Y31V/E32L/W56N showed 0.24, -0.07, 0.02, -0.22, -0.04, 0.21 (mean 0.02). The variant S25F/S38A/W56N showed 0.16, -0.13, -0.05, -0.22, 0.19, 0.26 (mean 0.04). With S25F/Y31G/S33Q/W56D/A57I the result was 0.21, 0.09, -0.13, 0.22, -0.20, 0.12 (mean 0.05). With S25L/Q27W/V29Q/W56N/T59Q the result was 0.15, 0.21, 0.13, -0.10, -0.05, 0.21 (mean 0.09). With Q27P/L30W/R34H/W56N/E61M the result was 0.35, 0.06, 0.10, 0.21, 0.05, 0.03 (mean 0.13). With S25L/V29E/W56N/Q96S the result was 0.28, 0.30, 0.41, -0.17, -0.05, 0.20 (mean 0.16). The variant S25F/V29D/W56H showed 0.26, 0.41, -0.01, -0.07, 0.15, 0.24 (mean 0.16). The variant Q27I/V29Y/S38A/W56A gave 0.43, 0.20, 0.20, 0.09, 0.08, 0.21 (mean 0.20).

The variant S25L/E32Q/S33M/N35Q/W56Q/E61M showed 0.42, 0.18, 0.07, 0.07, 0.27, 0.29 (mean 0.21). With Q27I/L30E/R34M/W56E the result was 0.25, 0.27, 0.24, 0.18, 0.21, 0.23 (mean 0.23). The variant K24H/S25L/W56N/T59Q/E61M showed 0.30, 0.12, 0.39, 0.19, 0.00, 0.49 (mean 0.25). The variant R34G/W56N/E61M gave 0.49, 0.14, 0.22, 0.06, 0.23, 0.48 (mean 0.27). For S25L/Q27M/V29W/W56N, the assay gave 0.36, 0.32, 0.23, 0.24, 0.29, 0.39 (mean 0.30). The variant S25F/V29Y/S33D/W56N/T59Q gave 0.56, 0.31, 0.19, 0.31, 0.30, 0.72 (mean 0.40). With S25L/W56D/S103D the result was 0.03, 0.41, 0.37, 0.59, 0.16, 1.12 (mean 0.45). With S28G/V29F/S33N/W56S/T59Q the result was 0.61, 0.38, 0.56, 0.44, 0.42, 0.72 (mean 0.52). The variant S25V/V29H/W56N/E61C showed 0.62, 0.72, 0.66, 0.47, 0.65, 0.51 (mean 0.61).

For S25F/N35T/W56N/E61N/Q96D, the assay gave 1.15, 0.61, 0.91, 0.30, 0.64, 0.75 (mean 0.73). The variant S25L/S26R/V29T/L30S/K36Q showed 0.92, 1.17, 0.68, 1.35, 0.74, 0.96 (mean 0.97). The variant K24L/Q27I/V29Y/R34V/W56E gave 0.88, 1.09, 1.09, 1.15, 1.38, 1.10 (mean 1.12). The variant E32N/N37Q/W56A showed 0.99, 0.97, 1.77, 1.38, 1.48, 0.93 (mean 1.25). The variant S25V/V29E/L30D/N37W/W56N gave 1.48, 2.90, 2.05, 1.09, 2.29, 1.17 (mean 1.83). For S25C/Q27S/Y31I/E32N/K36V/L102C, the assay gave 2.57, nd, nd, nd, nd, nd. The variant S33G/K36V/S38P/R99I showed nd, nd, nd, nd, nd, nd. With V29G/K36L/N37Y/E61C/Q95F the result was nd, nd, nd, nd, nd, nd. With S33F/R34I/K36N/R99Y the result was nd, nd, nd, nd, nd, nd.

The variant L30Y/E61P/L102P gave nd, nd, nd, nd, nd, nd.

Extract of 6 entries:

With S25L/S26G/S28G/W56G the result was -0.24, -0.47, -0.46, -0.46, -0.36, -0.30 (mean -0.38).
With Q27P/L30W/R34H/W56N/E61M the result was 0.35, 0.06, 0.10, 0.21, 0.05, 0.03 (mean 0.13).
With S33F/R34I/K36N/R99Y the result was nd, nd, nd, nd, nd, nd.
With R34G/W56N/E61M the result was 0.49, 0.14, 0.22, 0.06, 0.23, 0.48 (mean 0.27).
With S25V/V29E/L30D/N37W/W56N the result was 1.48, 2.90, 2.05, 1.09, 2.29, 1.17 (mean 1.83).
With S25C/Q27S/Y31I/E32N/K36V/L102C the result was 2.57, nd, nd, nd, nd, nd.